Values of other authors, collected in patent US7906508B2, “3,4-dihydrobenzoxazine compounds and inhibitors of vanilloid receptor subtype 1 (VRI) activity” (Japan Tobacco Inc., priority 2005, dated 2011).

Protein sequences, listed by entry. Tags and fused reporters are not part of them.
UniProt O35433, whole entry: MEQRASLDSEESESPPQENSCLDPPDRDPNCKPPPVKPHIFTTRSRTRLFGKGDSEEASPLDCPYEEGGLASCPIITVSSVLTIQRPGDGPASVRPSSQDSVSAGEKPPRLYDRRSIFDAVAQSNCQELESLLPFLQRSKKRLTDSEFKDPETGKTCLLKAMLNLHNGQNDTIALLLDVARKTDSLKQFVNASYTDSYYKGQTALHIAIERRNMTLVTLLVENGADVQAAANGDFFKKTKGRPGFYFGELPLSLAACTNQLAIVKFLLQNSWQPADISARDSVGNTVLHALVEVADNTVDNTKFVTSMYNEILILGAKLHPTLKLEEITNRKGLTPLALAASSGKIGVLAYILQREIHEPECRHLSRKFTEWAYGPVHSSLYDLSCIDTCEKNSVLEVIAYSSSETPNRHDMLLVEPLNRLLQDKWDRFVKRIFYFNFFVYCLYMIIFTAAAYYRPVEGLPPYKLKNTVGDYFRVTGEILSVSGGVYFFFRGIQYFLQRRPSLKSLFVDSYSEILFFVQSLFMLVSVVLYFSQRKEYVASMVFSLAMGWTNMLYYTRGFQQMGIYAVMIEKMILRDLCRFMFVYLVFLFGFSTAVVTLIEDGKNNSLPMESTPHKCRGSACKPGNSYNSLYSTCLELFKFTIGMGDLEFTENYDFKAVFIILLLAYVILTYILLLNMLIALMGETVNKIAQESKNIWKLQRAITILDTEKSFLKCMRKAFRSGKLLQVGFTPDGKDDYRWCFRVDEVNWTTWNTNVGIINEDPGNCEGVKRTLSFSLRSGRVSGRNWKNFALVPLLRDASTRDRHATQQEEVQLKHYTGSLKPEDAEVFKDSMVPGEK

Target: VR1 (Rattus norvegicus, UniProt O35433)
Details: J Pharmacol Exp Ther. 2003 July; 306 (1): 377-86; cited from earlier work

CC(C)(C)c1ccc(NC(=O)N2CCN(c3ncccc3Cl)CC2)cc1 [BCTC]
inhibitory activity (value of IC50) of BCTC according to the document: several
